Laboratory results published in patent US20260384449A1, “MACROCYCLIC AMINOPYRIDINE COMPOUNDS AS EGFR INHIBITORS” (published 2026).

By UniProt entry, the sequences of proteins in these tests, tags left out. Where a name states a change or a piece, a line headed by the entry shows the natural chain unless it says otherwise. Chains listed by the source or under a name are the forms on record and can include a tag or linker. Residues count along the entry.
UniProt P00533, 25-1210 C797S/L858R limits assumed: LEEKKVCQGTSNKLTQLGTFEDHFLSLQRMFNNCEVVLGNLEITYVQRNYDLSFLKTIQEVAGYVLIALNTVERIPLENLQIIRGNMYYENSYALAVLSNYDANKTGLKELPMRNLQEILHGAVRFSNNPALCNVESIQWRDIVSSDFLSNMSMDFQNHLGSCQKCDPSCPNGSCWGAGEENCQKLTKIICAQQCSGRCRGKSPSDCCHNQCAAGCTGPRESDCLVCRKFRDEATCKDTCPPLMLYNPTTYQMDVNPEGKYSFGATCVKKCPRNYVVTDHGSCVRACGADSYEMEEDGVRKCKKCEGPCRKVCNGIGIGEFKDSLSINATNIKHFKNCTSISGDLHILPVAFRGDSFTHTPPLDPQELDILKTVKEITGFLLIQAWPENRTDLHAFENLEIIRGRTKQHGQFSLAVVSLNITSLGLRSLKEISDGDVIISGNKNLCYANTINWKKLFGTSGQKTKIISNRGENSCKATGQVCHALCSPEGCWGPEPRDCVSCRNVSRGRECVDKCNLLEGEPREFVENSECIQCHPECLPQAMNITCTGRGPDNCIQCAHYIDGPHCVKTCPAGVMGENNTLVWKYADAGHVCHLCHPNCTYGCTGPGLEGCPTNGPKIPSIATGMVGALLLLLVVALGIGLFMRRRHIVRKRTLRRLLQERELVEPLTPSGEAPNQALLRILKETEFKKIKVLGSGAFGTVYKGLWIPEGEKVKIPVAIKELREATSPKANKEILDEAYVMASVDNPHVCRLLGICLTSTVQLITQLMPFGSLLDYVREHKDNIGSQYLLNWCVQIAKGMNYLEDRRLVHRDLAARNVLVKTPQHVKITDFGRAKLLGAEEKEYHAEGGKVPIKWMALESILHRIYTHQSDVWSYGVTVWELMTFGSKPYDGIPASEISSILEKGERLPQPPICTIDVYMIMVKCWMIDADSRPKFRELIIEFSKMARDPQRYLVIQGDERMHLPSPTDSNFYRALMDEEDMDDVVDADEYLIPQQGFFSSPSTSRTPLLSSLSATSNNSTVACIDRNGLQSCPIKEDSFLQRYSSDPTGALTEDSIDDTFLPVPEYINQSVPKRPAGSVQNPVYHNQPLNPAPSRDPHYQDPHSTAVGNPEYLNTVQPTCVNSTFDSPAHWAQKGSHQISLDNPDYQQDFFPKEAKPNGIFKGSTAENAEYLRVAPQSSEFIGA
UniProt P00533, 25-1210 T790M/C797S/L858R limits assumed: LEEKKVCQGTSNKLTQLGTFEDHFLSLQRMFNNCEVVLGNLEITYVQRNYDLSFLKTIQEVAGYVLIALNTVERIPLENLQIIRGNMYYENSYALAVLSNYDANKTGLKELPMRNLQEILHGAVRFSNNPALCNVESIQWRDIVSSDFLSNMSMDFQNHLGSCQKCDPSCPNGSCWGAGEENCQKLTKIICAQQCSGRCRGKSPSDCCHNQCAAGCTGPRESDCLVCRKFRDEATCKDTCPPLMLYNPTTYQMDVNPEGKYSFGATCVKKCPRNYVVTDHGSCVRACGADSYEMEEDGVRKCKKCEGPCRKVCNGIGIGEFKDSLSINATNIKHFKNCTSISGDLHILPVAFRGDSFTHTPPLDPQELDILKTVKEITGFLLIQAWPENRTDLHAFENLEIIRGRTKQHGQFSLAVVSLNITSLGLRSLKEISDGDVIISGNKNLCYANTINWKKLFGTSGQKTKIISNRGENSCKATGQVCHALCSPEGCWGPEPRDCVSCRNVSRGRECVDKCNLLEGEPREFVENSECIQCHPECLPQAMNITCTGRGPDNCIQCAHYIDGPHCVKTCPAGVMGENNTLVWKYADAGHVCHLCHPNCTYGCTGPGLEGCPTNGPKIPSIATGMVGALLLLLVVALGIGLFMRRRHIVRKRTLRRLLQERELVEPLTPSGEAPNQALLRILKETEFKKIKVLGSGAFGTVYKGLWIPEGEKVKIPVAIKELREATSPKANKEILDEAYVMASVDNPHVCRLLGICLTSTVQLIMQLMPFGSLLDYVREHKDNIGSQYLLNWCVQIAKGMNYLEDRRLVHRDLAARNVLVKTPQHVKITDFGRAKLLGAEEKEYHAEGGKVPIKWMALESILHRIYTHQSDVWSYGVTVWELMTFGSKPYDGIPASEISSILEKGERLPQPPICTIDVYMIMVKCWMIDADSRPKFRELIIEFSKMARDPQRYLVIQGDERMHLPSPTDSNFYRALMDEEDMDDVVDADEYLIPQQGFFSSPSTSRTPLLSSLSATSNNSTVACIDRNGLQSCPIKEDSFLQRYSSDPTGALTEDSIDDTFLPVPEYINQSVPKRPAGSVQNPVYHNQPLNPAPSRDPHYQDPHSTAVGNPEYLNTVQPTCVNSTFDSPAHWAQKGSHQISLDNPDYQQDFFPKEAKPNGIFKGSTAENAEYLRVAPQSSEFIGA
UniProt P00533, with tags, fused parts or gaps DEL746-750/C797S limits assumed: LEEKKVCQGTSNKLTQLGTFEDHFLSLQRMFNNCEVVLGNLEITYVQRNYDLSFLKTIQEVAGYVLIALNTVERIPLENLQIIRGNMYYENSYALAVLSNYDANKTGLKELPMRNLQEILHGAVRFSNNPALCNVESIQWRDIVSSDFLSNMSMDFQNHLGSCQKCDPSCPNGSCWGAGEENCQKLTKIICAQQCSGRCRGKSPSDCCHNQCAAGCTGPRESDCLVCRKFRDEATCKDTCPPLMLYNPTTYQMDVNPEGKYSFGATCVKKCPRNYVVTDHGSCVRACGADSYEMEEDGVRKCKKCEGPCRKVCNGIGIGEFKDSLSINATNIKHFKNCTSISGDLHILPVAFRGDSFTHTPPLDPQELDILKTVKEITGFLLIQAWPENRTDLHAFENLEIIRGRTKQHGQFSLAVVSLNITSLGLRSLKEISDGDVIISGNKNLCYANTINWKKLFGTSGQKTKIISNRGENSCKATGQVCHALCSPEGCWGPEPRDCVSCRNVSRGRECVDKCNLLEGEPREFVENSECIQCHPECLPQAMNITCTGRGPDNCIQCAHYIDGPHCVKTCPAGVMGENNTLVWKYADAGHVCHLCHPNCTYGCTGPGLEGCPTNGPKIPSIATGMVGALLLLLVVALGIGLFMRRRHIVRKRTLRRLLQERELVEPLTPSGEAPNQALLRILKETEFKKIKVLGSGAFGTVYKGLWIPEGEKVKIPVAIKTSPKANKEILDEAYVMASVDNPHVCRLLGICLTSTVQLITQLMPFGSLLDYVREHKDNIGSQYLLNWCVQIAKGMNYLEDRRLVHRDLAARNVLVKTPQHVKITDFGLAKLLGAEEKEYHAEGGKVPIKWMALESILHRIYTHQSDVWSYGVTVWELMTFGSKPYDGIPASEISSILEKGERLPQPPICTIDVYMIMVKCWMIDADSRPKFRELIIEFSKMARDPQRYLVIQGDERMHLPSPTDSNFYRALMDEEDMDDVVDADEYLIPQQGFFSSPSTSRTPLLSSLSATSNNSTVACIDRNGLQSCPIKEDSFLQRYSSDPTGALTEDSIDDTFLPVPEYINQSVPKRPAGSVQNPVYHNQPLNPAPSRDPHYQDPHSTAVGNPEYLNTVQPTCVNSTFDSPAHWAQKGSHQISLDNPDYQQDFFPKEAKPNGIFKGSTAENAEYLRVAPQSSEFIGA
UniProt P00533, with tags, fused parts or gaps DEL746-750/T790M/C797S limits assumed: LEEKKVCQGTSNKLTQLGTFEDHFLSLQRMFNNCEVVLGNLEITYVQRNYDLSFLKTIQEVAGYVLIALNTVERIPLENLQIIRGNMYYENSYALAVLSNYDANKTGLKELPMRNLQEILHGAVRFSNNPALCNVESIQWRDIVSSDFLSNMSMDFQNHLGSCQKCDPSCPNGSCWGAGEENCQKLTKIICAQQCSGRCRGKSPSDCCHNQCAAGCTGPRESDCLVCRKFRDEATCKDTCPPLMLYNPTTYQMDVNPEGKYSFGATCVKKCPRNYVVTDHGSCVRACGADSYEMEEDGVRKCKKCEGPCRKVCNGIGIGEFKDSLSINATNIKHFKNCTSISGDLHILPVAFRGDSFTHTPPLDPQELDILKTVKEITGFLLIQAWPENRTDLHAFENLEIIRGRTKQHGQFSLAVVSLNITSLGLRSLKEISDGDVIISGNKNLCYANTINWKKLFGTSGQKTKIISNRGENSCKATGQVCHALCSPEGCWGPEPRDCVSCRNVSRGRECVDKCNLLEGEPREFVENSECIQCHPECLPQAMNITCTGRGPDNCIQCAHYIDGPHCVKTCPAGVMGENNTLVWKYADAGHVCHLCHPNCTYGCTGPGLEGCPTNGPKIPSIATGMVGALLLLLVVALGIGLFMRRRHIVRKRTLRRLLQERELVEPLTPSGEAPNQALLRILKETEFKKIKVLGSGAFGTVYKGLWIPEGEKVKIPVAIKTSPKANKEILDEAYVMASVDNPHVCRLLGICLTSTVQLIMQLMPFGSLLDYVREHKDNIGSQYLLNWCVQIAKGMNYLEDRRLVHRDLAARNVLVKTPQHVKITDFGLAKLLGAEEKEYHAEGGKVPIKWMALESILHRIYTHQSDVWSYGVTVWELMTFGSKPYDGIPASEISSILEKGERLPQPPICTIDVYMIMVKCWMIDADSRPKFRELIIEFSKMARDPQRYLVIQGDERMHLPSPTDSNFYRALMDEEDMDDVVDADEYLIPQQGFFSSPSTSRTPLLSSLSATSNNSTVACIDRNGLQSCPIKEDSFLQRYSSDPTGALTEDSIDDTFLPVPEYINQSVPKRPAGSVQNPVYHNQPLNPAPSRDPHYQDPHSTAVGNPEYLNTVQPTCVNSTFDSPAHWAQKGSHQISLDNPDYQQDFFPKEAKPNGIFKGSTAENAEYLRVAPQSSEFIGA
UniProt P00533, 25-1210 limits assumed: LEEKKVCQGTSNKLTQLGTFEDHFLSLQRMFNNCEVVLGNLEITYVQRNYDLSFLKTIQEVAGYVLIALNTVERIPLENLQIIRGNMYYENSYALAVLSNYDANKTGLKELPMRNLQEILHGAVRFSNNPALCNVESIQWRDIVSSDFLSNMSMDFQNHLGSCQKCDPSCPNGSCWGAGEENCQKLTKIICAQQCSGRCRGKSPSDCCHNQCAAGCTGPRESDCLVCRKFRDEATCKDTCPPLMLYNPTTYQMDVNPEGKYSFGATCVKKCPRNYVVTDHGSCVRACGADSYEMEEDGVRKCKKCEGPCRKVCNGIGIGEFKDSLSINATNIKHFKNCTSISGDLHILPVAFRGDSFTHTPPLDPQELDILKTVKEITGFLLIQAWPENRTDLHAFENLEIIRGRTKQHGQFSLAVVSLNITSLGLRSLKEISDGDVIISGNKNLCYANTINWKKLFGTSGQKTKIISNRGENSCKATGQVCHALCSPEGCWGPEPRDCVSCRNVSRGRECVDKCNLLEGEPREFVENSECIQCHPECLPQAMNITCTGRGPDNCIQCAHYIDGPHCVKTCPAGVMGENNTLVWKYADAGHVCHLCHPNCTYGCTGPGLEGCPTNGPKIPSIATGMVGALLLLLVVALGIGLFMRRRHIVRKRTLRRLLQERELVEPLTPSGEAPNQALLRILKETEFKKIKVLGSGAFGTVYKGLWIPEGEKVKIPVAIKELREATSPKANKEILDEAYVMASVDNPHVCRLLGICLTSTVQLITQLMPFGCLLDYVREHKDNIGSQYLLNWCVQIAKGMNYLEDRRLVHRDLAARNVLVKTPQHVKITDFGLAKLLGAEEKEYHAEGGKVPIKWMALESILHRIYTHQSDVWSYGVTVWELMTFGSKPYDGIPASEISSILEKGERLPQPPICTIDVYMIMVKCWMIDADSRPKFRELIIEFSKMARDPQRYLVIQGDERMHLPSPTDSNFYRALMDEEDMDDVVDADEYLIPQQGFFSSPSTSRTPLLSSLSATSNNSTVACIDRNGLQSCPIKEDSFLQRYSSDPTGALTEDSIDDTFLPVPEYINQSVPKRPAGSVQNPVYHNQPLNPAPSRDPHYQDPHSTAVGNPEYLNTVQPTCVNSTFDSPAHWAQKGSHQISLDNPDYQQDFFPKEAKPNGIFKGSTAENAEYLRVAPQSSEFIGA

Key:
[1] = target: EGFR LRTMCS (L858R/T790M/C797S) (Homo sapiens, UniProt P00533, C797S/L858R/T790M); test: Biochemical EGFR kinase inhibition (Lance Ultra TR-FRET), L858R/T790M/C797S; conditions: read-out: EGFR LRTMCS IC50
[2] = target: EGFR LRCS (L858R/C797S) (Homo sapiens, UniProt P00533, C797S/L858R); test: Biochemical EGFR kinase inhibition (Lance Ultra TR-FRET), L858R/C797S; conditions: read-out: EGFR LRCS IC50
[3] = target: EGFR D19TMCS (del19/T790M/C797S) (Homo sapiens, UniProt P00533, C797S/DEL746-750/T790M); test: Biochemical EGFR kinase inhibition (Lance Ultra TR-FRET), del19/T790M/C797S; conditions: read-out: EGFR D19TMCS IC50
[4] = target: EGFR WT (Homo sapiens, UniProt P00533); test: Biochemical EGFR kinase inhibition (Lance Ultra TR-FRET), wildtype; conditions: read-out: EGFR WT IC50; ATP at Km
[5] = target: EGFR D19CS (del19/C797S) (Homo sapiens, UniProt P00533, C797S/DEL746-750); test: Biochemical EGFR kinase inhibition (Lance Ultra TR-FRET), del19/C797S; conditions: read-out: EGFR D19CS IC50

| Structure (SMILES) | IC50 ([1]; 1 mM ATP) | IC50 ([1]; ATP at Km) | IC50 ([2]; 1 mM ATP) | IC50 ([2]; ATP at Km) | IC50 ([3]; 1 mM ATP) | IC50 ([3]; ATP at Km) | IC50 [4] | IC50 ([5]; 1 mM ATP) | IC50 ([5]; ATP at Km) |
| --- | --- | --- | --- | --- | --- | --- | --- | --- | --- |
| Cc1nn(C)c2c1-c1nccc(n1)Nc1cc(c(C#Cc3ccc(C(=O)N4CCC(O)CC4)cc3)cn1)N[C@@H](C)CCO2 | < 10 nM | < 10 nM | 10 to 100 nM | < 10 nM | < 10 nM | < 10 nM | 10 to 100 nM | < 10 nM | < 10 nM |
| Cc1nn(C)c2c1-c1nccc(n1)Nc1cc(c(C#Cc3ccc(S(C)(=O)=O)cc3)cn1)N[C@@H](C)CCO2 | < 10 nM | < 10 nM | 100 to 1000 nM | < 10 nM | < 10 nM | < 10 nM | 10 to 100 nM | 10 to 100 nM | < 10 nM |
| CC(C)n1cc(C#Cc2cnc3cc2N[C@@H](C)CCOc2c(cnn2C)-c2nccc(n2)N3)cn1 | < 10 nM | < 10 nM | 100 to 1000 nM | 10 to 100 nM | < 10 nM | < 10 nM | 10 to 100 nM | 10 to 100 nM | < 10 nM |
| Cc1nn(C)c2c1-c1nccc(n1)Nc1cc(c(C#Cc3cn(C)nc3C#N)cn1)NCC[C@@H](C)O2 | < 10 nM | < 10 nM | 100 to 1000 nM | < 10 nM | < 10 nM | < 10 nM | 100 to 1000 nM | 10 to 100 nM | < 10 nM |
| Cc1nn(C)c2c1-c1nccc(n1)Nc1cc(c(C#Cc3cnn(C(F)F)c3)cn1)N[C@@H](C)CCO2 | 10 to 100 nM | < 10 nM | 100 to 1000 nM | < 10 nM | < 10 nM | < 10 nM | 10 to 100 nM | 10 to 100 nM | < 10 nM |
| C[C@H]1CCNc2cc(ncc2C#Cc2cnn(C(F)(F)F)c2)Nc2ccnc(n2)-c2cnn(C)c2O1 | < 10 nM | < 10 nM | 100 to 1000 nM | 10 to 100 nM | < 10 nM | < 10 nM | 10 to 100 nM | 10 to 100 nM | 10 to 100 nM |
| C[C@@H]1CCOc2c(cnn2C)-c2nccc(n2)Nc2cc(c(C#Cc3cnn(C(F)(F)F)c3)cn2)N1 | > 1000 nM | 10 to 100 nM | > 1000 nM | > 1000 nM | < 10 nM | < 10 nM | > 1000 nM | > 1000 nM | > 1000 nM |
| Cn1ncc2c1OCCCNc1cc(ncc1C#Cc1cnn(CC(F)(F)F)c1)Nc1ccnc-2n1 | 100 to 1000 nM | 10 to 100 nM | > 1000 nM | 100 to 1000 nM | 10 to 100 nM | 10 to 100 nM | 100 to 1000 nM | > 1000 nM | 100 to 1000 nM |
| Cn1ncc2c1OCC(C)(C)CNc1cc(ncc1C#Cc1cnn(CC(F)(F)F)c1)Nc1ccnc-2n1 | 10 to 100 nM | 10 to 100 nM | > 1000 nM | > 1000 nM | 10 to 100 nM | < 10 nM | 100 to 1000 nM | > 1000 nM | > 1000 nM |
| C[C@H]1CCOc2c(cnn2C)-c2nccc(n2)Nc2cc(c(C#Cc3ncn(C)n3)cn2)N1 | < 10 nM | < 10 nM | > 1000 nM | 10 to 100 nM | < 10 nM | < 10 nM | 10 to 100 nM | 100 to 1000 nM | 10 to 100 nM |
| C[C@H]1CCOc2c(cnn2CC(F)(F)F)-c2nccc(n2)Nc2cc(c(C#Cc3cnn(C(F)F)c3)cn2)N1 | < 10 nM | < 10 nM | > 1000 nM | 100 to 1000 nM | 10 to 100 nM | < 10 nM | 100 to 1000 nM | > 1000 nM | 100 to 1000 nM |
| Cc1nn(C(F)(F)F)c(C)c1C#Cc1cnc2cc1NCC[C@H](C)Oc1c(c(C)nn1C)-c1nccc(n1)N2 | 100 to 1000 nM | < 10 nM | 100 to 1000 nM | < 10 nM | 10 to 100 nM | < 10 nM | 10 to 100 nM | 10 to 100 nM | 10 to 100 nM |
| C[C@H]1CCOc2c(cnn2C)-c2nccc(n2)Nc2cc(c(C#Cc3cnn(CC(F)F)c3)cn2)N1 | < 10 nM | < 10 nM | 10 to 100 nM | < 10 nM | < 10 nM | < 10 nM | < 10 nM | < 10 nM | < 10 nM |
| Cn1cc(C#Cc2cnc3cc2NCC2(CC2)COc2c(cnn2C)-c2nccc(n2)N3)cn1 | 10 to 100 nM | < 10 nM | > 1000 nM | 10 to 100 nM | < 10 nM | < 10 nM | 10 to 100 nM | 100 to 1000 nM | 10 to 100 nM |
| Cc1nn(C)c2c1-c1nccc(n1)Nc1cc(c(C#Cc3ccc(N4CCOCC4)cc3)cn1)NCC[C@H](C)O2 | 10 to 100 nM | < 10 nM | 100 to 1000 nM | < 10 nM | < 10 nM | < 10 nM | 10 to 100 nM | 100 to 1000 nM | 10 to 100 nM |
| C[C@H]1CCOc2c(cnn2C)-c2nccc(n2)Nc2cc(c(C#Cc3cnn(C4CC4(F)F)c3)cn2)N1 (stereo partly drawn) | < 10 nM | < 10 nM | 100 to 1000 nM | 10 to 100 nM | < 10 nM | < 10 nM | 10 to 100 nM | 10 to 100 nM | < 10 nM |
| Cc1nn(C)c2c1-c1nccc(n1)Nc1cc(c(C#Cc3cn(C)nc3C#N)cn1)NCC[C@H](C)O2 | < 10 nM | < 10 nM | 10 to 100 nM | < 10 nM | < 10 nM | < 10 nM | < 10 nM | < 10 nM | < 10 nM |
| Cn1ncc2c1OC[C@H](F)CNc1cc(ncc1C#Cc1cnn(CC(F)(F)F)c1)Nc1ccnc-2n1 | > 1000 nM | 10 to 100 nM | > 1000 nM | > 1000 nM | 100 to 1000 nM | 10 to 100 nM | > 1000 nM | > 1000 nM | > 1000 nM |
| Cc1nn(C)c2c1-c1nccc(n1)Nc1cc(c(C#Cc3cnn(C)c3)cn1)NCC[C@H](C)O2 | < 10 nM | < 10 nM | 10 to 100 nM | < 10 nM | < 10 nM | < 10 nM | 10 to 100 nM | 10 to 100 nM | < 10 nM |
| C[C@H]1CCOc2c(cnn2C)-c2cc(ccn2)Nc2cc(c(C#Cc3cnn(C)c3)cn2)N1 | 10 to 100 nM | < 10 nM | 100 to 1000 nM | 10 to 100 nM | < 10 nM | < 10 nM | 10 to 100 nM | 100 to 1000 nM | 10 to 100 nM |
| Cc1nn(C)c2c1-c1nccc(n1)Nc1cc(c(C#Cc3cnn(CC(F)F)c3)cn1)N[C@@H](C)CCO2 | < 10 nM | < 10 nM | 100 to 1000 nM | < 10 nM | < 10 nM | < 10 nM | 10 to 100 nM | 10 to 100 nM | < 10 nM |

Like-named read-outs stand apart in the source and are kept apart here.
